{"sequences": {"note": "Protein sequences, listed by entry. Tags and fused reporters are not part of them. Residues count along the entry.", "UniProt P55899, 24-297 limits assumed": "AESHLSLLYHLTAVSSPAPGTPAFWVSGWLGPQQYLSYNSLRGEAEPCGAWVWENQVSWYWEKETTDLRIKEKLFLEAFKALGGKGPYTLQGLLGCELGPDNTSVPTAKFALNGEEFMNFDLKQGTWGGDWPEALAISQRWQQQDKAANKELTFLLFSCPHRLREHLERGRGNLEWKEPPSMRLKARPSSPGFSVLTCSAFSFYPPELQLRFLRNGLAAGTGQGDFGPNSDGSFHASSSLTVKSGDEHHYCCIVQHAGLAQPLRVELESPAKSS"}, "source": "patent US20170216452A1", "about": "“ANTIBODIES AND ANTIBODY FRAGMENTS FOR SITE-SPECIFIC CONJUGATION” (Pfizer Inc., priority 2015, published 2017)", "key": {"human FcRn": {"biological_target": "human FcRn (Homo sapiens, UniProt P55899)", "assay": "BIAcore steady-state binding to human FcRn", "settings": "steady-state affinity, pH 6.0; read-out: KD [nM] Experiment 2"}, "[1]": {"test_system": "MDA-MB-361-DYT2 and MDA-MB-453 cells", "assay": "In vitro cytotoxicity assay (MTS, 4 days)", "type": "cell-based", "settings": "cells with 2++ level Her2 expression: MDA-MB-361-DYT2 and MDA-MB-453"}, "N87 cells": {"test_system": "N87 cells", "settings": "parental N87 cells"}, "MDA-MB-175-VII cells": {"test_system": "MDA-MB-175-VII cells", "assay": "In vitro cytotoxicity assay (MTS, 4 days)", "type": "cell-based", "settings": "MDA-MB-175-VII cells (1+ Her2 expression); antibody concentration"}, "[2]": {"test_system": "N87-T-DM1 cells (Mouse #7, #17, #2)", "assay": "Cytotoxicity studies (CellTiter Glo, 96 h) on cells relapsed from T-DM1 treatment in vivo", "type": "cell-based", "settings": "N87-T-DM1 cells compared to parental", "experimental": "Cells were incubated for 96 hours in a humidified 37° C./5% CO2 incubator."}, "[3]": {"test_system": "N87 cell line xenograft tumors", "assay": "Bystander effect, immunohistocytochemistry (pHH3, human IgG) of N87 xenograft tumors", "type": "in vivo, mouse", "settings": "single dose T-DM1 6 mg/kg or T-vc0101 3 mg/kg, tumors harvested 96 hours later", "text": "The ability of a released ADC payload to kill neighboring cells is known as the bystander effect. […] Tumor sections were stained for human IgG to detect ADC bound to tumor cells and phosphhistone H3 (pHH3) to detect mitotic cells as readout of the proposed mechanism of action for the payloads of both ADCs.\nADC is detected in the periphery of the tumors in both cases."}}, "note": "Like-named read-outs stand apart in the source and are kept apart here."}
{"substance": "T-DM1", "values": [{"measurement": "Kd", "setting": "human FcRn", "result": 501, "unit": "nM"}, {"measurement": "in vitro cytotoxicity IC50", "setting": "[1]", "result": "0.038 to 0.04", "unit": "µg/mL"}, {"measurement": "IC50", "setting": "N87 cells; antibody concentration", "result": 0.062, "unit": "µg/mL"}, {"measurement": "IC50", "setting": "N87 cells; payload concentration", "result": 1.7, "unit": "nM"}, {"measurement": "in vitro cytotoxicity IC50", "setting": "MDA-MB-175-VII cells", "result": 3.626, "unit": "µg/mL"}]}
{"substance": "T-vc0101: trastuzumab conventionally conjugated, vc linker, payload 0101", "values": [{"measurement": "sensitivity of T-DM1 resistant cells generated in vivo", "setting": "[2]", "result": "sensitive"}, {"measurement": "bystander effect", "setting": "[3]", "result": "able to elicit a strong bystander effect"}]}
